According to PubChem BioAssay AID485290 (National Center for Advancing Translational Sciences (NCATS), 2010):
“And” between values parts separate entries of the source, which are not always exact repeats. Equal entries are not always repeated. This is a selection; strong and weak results do not stand in their true shares. The source made the active and inactive calls. Calls come from the whole dose curve; as a rule, active = well fitted inhibition curve with a large enough effect; inconclusive = small, poorly fitted or top-dose-only effect; inactive = no such curve, though single readings can be large or run the other way.

Chains of the proteins cited; added tags and fusions are not shown.
UniProt Q9NUW8, whole entry, looked up: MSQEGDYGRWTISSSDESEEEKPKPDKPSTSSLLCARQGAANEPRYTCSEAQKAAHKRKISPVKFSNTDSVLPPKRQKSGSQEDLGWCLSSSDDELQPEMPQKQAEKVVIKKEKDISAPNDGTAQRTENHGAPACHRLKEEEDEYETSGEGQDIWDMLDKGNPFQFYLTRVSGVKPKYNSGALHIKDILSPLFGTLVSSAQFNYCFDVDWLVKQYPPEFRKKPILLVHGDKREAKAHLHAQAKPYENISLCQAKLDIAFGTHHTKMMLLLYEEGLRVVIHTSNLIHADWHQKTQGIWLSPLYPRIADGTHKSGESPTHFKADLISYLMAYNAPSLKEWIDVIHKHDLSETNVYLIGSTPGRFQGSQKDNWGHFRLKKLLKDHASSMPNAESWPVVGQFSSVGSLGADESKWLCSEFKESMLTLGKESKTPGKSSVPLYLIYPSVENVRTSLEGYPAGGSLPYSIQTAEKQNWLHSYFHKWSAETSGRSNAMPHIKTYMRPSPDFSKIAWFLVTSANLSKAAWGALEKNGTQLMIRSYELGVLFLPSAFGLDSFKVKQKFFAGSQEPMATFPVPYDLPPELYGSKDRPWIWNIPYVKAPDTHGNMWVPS

Target: Tyrosyl-DNA phosphodiesterase 1 (Homo sapiens) (UniProt Q9NUW8)
Assay: qHTS Assay for Inhibitors of Tyrosyl-DNA Phosphodiesterase (TDP1); note: nearly all actives have a fitted effect of over 40% in size
Conditions: recombinant TDP1, AlphaScreen DNA substrate cleavage
Excerpt: NIH Molecular Libraries Probe Production Network [MLPCN]
NIH Chemical Genomics Center [NCGC]
Assay Provider: Yves Pommier and Christophe Marchand, National Cancer Institute
Assay Title: qHTS Assay for Inhibitors of Tyrosyl-DNA Phosphodiesterase (TDP1); note: nearly all actives have a fitted effect of over 40% in size
Human tyrosyl-DNA phosphodiesterase I (Tdp1) is a rational anticancer target because this enzyme is involved in the repair of DNA lesions created by the trapping of human DNA topoisomerase I (Top1) following treatment by anticancer agents such as camptothecins. Recombinant Tdp1 was expressed and purified from E. coli in the laboratory (Anthony et al, Nucleic Acids Research, 2007, Vol. 35, 4474-4484). A Tdp1 DNA substrate bearing a 5' biotin and a 3' phospho-tyrosine was obtained by custom synthesis. This oligonucleotidic DNA substrate was subsequently coupled to a fluorescein isothiocyanate (FITC) group via the free amino group present on the phospho-tyrosine. Tdp1 was screened against the NCGC small molecule library using the AlphaScreen (AS) detection method in which a streptavidin donor AS bead is bound at the 5' end and an anti-FITC AS acceptor bead is bound at the 3' end of the DNA oligonucleotidic substrate. […]
3 ul of Tdp1 enzyme is dispensed to 1536-well Kalypsys black solid bottom plates. […] The detection is then performed on a PerkinElmer Envision reader.
Potency is the fitted concentration of half-maximal effect.

**Q.** Which Potency does the source give for `CC(CCC(C)C(C)(C)C)[C@@H]1CC[C@H]2C3C[C@H](OS(O)(=S)=S)[C@H]4C[C@H](OS(O)(=S)=S)[C@@H](OS(O)(=S)=S)C[C@]4(C)[C@H]3CC[C@]12C` (some centres not stated) (tested in a mixture with another compound) here?
**A.** The Potency was active: 39.8 µM and active: 20 µM.

**Q.** With `COc1c(N2CCNC(C)C2)c(F)cc2c(=O)c(C(=O)O)cn(C3CC3)c12` (configuration not stated) as the molecule, how does the Potency read?
**A.** The Potency was active: 28.2 µM.
